{
  "sequences": {"note": "Amino acid sequences for entries named in this document (tags omitted). A change or cut given only in a name is not applied to a line headed by its entry.", "UniProt P11229": "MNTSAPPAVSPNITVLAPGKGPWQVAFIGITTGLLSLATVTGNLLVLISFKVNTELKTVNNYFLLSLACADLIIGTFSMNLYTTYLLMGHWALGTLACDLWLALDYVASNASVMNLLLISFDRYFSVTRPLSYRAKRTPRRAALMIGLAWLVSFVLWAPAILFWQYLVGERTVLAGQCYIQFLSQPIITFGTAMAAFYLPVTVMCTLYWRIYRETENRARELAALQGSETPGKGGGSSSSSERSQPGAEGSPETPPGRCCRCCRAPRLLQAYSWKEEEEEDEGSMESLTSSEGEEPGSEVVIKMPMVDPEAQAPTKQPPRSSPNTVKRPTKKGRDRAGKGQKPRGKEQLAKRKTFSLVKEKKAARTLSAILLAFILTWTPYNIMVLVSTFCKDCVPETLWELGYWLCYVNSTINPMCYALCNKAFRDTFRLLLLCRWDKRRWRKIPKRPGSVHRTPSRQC"},
  "source": "paper PMC4965013",
  "about": "“Open Source Drug Discovery with the Malaria Box Compound Collection for Neglected Diseases and Beyond” (PLoS Pathogens, 2016)",
  "molecular_target": "T1, M1 receptor (Homo sapiens, UniProt P11229)",
  "T1 construct": "host or cells: CHO (ATCC), pcDNA3",
  "assay": "M1 radioligand binding",
  "settings": "reference compound",
  "data": [
    {"smiles": "CC(C)[N+]1(C)[C@@H]2CC[C@H]1C[C@@H](OC(=O)C(CO)c1ccccc1)C2", "note": "(stereo partly shown) [Ipratropium]", "values": [
      {"measurement": "Ki", "value": 0.81, "unit": "nM"}
    ]}
  ]
}
